Test results as given in publication PMC2751792 (Journal of the American Chemical Society, 2009).

Experiments:
recombinant human HDAC6 = biological target: T1, recombinant human HDAC6 (Homo sapiens, UniProt Q9UBN7); assay: Recombinant HDAC isoform inhibition, HDAC6; format: biochemical
T1 sequence (Q9UBN7 1-1215): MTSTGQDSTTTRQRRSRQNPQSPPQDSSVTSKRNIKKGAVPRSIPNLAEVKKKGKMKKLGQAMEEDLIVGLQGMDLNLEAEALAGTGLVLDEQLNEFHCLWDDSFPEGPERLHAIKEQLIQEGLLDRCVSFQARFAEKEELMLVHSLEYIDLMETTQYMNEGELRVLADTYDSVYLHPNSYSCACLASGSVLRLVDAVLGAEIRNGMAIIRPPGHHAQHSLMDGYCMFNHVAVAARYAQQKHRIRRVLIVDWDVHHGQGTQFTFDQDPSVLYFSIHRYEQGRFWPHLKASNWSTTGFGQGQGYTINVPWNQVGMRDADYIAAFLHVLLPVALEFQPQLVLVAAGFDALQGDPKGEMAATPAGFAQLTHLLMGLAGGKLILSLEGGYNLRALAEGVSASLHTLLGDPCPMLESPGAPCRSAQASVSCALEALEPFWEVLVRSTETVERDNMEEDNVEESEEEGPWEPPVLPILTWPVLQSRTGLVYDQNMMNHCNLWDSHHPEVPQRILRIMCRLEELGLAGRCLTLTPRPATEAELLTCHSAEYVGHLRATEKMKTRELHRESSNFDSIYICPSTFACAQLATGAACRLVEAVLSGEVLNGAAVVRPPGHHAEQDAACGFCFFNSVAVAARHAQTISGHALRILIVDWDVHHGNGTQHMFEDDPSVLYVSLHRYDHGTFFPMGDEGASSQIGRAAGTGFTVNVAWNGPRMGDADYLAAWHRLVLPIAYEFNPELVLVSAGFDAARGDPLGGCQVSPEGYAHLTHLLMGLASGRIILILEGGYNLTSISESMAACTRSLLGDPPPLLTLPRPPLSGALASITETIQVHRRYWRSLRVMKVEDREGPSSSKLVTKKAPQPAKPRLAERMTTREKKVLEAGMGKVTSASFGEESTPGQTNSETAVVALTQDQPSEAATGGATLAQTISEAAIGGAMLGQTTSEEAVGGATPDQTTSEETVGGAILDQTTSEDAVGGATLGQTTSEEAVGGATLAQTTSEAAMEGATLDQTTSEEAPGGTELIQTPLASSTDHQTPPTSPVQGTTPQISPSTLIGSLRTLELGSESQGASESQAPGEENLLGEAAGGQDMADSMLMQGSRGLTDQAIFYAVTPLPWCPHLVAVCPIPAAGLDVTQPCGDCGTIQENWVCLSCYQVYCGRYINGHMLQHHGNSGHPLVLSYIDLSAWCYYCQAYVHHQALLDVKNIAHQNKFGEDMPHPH

[1] = system: HDAC activity in HeLa cell nuclear extract; assay: Inhibition of HDAC activity in HeLa cell nuclear extract; format: biochemical, human; conditions: numbers only in Figures 2-4 (not readable)

SMILES | IC50 (recombinant human HDAC6) [µM] | HDAC inhibitory activity in HeLa cell nuclear extract, result in words [1]
CC(C)C[C@H]1CC(=O)N[C@@H](C)C(=O)N[C@@H](CCCCCC(=O)O)C(=O)N[C@@H](Cc2c[nH]c3ccccc23)C(=O)N1 [3b] | > 10 | –
CCC(=O)CCCCC[C@@H]1NC(=O)[C@H](C)NC(=O)C[C@H](CC(C)C)NC(=O)[C@H](Cc2c[nH]c3ccccc23)NC1=O [compound 3] | – | low nanomolar IC50 values comparable to that of apicidin
